{"sequences": {"note": "Sequences of proteins named here, by UniProt entry; tags and fusion partners are left off.", "UniProt P49327, whole entry": "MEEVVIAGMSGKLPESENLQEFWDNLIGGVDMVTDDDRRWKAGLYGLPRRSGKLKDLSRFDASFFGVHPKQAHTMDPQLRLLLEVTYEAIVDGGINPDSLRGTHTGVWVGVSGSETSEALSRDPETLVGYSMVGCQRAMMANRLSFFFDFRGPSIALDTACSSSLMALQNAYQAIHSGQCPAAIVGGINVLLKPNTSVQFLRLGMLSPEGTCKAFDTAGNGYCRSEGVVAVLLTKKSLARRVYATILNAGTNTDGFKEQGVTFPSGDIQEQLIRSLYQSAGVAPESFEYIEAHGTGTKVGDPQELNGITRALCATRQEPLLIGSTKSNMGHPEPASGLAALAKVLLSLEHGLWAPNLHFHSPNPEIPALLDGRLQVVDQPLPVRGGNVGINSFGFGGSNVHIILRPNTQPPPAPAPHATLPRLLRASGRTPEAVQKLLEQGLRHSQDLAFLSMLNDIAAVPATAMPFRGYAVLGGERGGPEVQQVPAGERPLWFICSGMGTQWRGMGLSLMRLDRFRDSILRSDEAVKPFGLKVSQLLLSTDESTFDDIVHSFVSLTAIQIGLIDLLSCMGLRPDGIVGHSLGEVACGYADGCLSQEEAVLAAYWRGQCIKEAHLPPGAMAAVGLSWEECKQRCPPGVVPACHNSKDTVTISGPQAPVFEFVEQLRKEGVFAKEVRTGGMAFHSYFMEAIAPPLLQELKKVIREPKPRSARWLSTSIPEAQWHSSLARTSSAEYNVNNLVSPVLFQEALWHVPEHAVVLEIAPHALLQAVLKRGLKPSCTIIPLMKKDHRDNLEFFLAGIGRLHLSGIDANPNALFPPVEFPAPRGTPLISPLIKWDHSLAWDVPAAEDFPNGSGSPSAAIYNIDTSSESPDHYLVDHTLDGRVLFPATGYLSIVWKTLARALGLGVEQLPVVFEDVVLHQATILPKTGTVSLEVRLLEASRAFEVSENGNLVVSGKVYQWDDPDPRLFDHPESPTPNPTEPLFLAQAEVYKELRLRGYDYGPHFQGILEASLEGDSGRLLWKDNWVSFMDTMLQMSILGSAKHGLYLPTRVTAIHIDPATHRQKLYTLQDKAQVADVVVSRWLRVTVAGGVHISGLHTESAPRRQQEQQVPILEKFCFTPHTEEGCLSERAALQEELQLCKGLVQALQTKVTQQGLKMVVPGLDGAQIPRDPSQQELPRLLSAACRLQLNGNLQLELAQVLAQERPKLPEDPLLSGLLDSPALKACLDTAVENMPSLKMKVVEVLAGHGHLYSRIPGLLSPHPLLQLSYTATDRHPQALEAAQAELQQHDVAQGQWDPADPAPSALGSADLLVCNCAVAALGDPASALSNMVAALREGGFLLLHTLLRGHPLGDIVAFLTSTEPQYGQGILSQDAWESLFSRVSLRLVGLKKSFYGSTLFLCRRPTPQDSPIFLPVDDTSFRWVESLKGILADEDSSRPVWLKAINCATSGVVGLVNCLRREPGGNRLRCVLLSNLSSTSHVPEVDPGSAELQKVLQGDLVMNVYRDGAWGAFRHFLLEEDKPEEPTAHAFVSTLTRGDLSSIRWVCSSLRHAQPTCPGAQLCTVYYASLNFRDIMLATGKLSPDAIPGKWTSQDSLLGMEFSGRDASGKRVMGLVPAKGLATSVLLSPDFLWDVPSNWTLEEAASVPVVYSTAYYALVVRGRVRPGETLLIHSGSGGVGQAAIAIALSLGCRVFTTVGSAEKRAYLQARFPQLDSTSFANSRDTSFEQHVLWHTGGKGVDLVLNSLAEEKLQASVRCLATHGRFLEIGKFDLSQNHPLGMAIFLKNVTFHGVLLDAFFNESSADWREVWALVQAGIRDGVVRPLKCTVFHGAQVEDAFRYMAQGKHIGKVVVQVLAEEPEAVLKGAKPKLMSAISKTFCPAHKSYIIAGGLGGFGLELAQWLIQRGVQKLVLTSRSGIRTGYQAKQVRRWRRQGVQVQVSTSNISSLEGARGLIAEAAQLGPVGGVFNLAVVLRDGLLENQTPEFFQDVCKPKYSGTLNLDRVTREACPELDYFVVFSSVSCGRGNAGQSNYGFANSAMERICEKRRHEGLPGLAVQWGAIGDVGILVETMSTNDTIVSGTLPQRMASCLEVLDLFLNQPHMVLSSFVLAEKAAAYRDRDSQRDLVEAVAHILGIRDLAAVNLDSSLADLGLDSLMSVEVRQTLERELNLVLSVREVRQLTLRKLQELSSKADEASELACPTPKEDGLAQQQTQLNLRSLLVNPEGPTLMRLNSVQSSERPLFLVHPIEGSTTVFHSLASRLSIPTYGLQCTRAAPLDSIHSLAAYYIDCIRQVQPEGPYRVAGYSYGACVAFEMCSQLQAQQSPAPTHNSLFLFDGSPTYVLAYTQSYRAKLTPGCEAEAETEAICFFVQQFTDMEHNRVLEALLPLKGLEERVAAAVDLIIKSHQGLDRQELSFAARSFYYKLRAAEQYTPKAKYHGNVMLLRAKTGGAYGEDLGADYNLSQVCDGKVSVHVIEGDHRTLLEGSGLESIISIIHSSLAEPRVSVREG"}, "source": "PubChem BioAssay AID624325", "about": "(Sanford-Burnham Center for Chemical Genomics, 2012)", "note": "The entries are a selection whose mix differs from that of the whole data set. Active and inactive are the calls of the source.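 The calls were made as follows: active = compounds inhibiting the enzyme by at least 50% at 15 µM in any one of the replicates; inactive = the rest.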"}
{"target": "Fatty acid synthase (Homo sapiens) (UniProt P49327)", "assay": "inhibition of human FAS-TE enzyme activity – biochemical, fluorescence intensity, single concentration, confirmation (AID 624325);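 also: 0% = enzyme with DMSO only and 100% = wells lacking enzyme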", "conditions": "recombinant FAS-TE, OMFH fluorogenic substrate, at 15 µM, hits give high values"}
{"smiles": "O=c1[nH]c2ccccc2n1C1CCN(C(c2cc3ccccc3o2)c2nnnn2C2CCCCC2)CC1", "note": "(stereo not given)", "inhibition": "inactive: 27.2%"}
{"smiles": "O=c1[nH]c2ccccc2n1C1CCN(C(c2cccc3ccccc23)c2nnnn2C2CCCC2)CC1", "note": "(stereo not given)", "inhibition": "inactive: 28.4%"}
{"smiles": "CCCCn1nnnc1C(c1cccc2ccccc12)N1CCC(n2c(=O)[nH]c3ccccc32)CC1", "note": "(stereo not given)", "inhibition": "inactive: 28.7%"}
{"smiles": "CC(C)(C)n1nnnc1C(c1cccc2ccccc12)N1CCC(n2c(=O)[nH]c3ccccc32)CC1", "note": "(stereo not given)", "inhibition": "inactive: -2.37%"}
{"smiles": "O=c1[nH]c2ccccc2n1C1CCN(C(c2cc3ccccc3o2)c2nnnn2C2CCCC2)CC1", "note": "(stereo not given)", "inhibition": "inactive: 17.6%"}
